# Target: T1, GluN1-GluN2B (Rattus norvegicus, UniProt P35439+Q00960)
# By UniProt entry, the sequences of proteins in these tests, tags left out. Residues count along the entry.
# UniProt Q00960, 27-1482: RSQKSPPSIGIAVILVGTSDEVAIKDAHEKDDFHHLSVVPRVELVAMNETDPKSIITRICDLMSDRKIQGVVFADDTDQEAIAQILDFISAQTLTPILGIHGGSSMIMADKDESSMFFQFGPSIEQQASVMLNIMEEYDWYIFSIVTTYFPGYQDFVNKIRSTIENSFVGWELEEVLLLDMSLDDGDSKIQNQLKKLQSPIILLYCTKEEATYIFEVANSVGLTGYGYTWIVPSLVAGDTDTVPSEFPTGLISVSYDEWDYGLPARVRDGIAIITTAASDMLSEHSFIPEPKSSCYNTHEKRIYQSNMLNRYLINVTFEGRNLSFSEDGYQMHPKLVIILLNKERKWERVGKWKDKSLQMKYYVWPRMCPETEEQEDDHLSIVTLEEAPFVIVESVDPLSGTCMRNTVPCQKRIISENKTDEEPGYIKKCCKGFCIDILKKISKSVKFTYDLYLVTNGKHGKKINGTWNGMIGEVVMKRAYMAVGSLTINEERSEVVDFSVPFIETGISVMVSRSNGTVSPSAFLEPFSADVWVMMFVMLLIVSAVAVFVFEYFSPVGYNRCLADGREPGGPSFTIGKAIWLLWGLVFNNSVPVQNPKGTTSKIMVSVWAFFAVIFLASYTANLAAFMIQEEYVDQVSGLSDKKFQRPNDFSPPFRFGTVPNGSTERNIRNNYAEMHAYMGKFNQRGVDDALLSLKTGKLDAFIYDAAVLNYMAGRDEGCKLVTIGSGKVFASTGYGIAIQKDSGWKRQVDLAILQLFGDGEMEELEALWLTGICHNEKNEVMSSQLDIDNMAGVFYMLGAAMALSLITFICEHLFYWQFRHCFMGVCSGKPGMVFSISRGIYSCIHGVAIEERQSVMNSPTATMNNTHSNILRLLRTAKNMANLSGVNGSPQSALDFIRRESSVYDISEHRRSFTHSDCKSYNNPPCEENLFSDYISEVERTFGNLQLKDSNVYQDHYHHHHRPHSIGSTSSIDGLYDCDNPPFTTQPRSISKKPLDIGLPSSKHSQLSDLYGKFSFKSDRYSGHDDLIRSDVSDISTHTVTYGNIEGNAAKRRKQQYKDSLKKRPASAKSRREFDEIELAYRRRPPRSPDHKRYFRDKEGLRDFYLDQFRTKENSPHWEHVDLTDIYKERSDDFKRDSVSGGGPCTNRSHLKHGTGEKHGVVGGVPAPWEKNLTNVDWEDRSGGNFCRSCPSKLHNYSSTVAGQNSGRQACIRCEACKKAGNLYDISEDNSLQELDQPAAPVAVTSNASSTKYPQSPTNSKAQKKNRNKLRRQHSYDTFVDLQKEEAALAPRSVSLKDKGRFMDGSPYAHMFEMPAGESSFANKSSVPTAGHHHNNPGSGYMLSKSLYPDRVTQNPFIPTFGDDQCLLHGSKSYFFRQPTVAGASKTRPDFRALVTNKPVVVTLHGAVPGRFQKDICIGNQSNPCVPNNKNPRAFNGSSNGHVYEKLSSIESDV
# T1 construct: GFP (N); expressed in transfected cells; host or cells: HEK-293T
# Format: cell-based
structure (smiles),measurement,value
"NCC(=O)O [glycine, reference compound]",response to glycine alone,did not result in any measurable response

# — PMC12678337, “EAR-20 peptide, a novel NMDA receptor positive allosteric modulator” (Frontiers in Pharmacology, 2025)
